# scFv variants of Ab-14 (light chain) against a SARS-CoV-2 spike peptide

Antigen: PDVDLGDISGINAS, a 14-residue peptide of the SARS-CoV-2 spike HR2 region.

Ab-14 is the parent antibody, in scFv form: VH, then a 15-residue (Gly4Ser)3 linker, then VL. The heavy chain is unchanged in all variants.
VH: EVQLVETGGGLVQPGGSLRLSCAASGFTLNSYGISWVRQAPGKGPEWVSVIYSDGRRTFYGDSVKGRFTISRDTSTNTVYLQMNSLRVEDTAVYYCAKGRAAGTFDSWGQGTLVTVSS
VL: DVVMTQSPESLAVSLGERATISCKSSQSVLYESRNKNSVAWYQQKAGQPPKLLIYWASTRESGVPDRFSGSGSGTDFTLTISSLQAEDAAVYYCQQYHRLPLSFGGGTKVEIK

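Phage display of a naive human antibody library on the peptide gave the parent. This is the validation round: designs drawn from the data on random variants, tested in the same kind of assay. Group labels follow the data file (Ctrl: baseline library sampled from a position-specific scoring matrix, with some repeated check sequences; En: ensemble of fine-tuned language models; GP: Gaussian process model; HC: hill climbing; Gen: genetic algorithm; Gibbs: Gibbs sampling; a sequence that several methods proposed may carry one label only). In AlphaSeq, yeast of one mating type display the scFv and yeast of the other type display the target. The frequency of each diploid, read from paired DNA barcodes, reflects how well the two displayed proteins bind. A regression on co-assayed BCL2-family reference pairs converts the normalised counts of each replicate to an apparent Kd. Each pool was mated in six replicate cultures.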

Variants are written as CDR1, CDR2 and CDR3 of the light chain (limits as in the source). Parent: KSSQSVLYESRNKNSVA, WASTRES, QQYHRLPLS. The Kd shown is the geometric mean over detected replicates; a lower Kd is a better binder. "not detected" means that the variant was in the library but no mating with the target was seen in any replicate; the authors take this as a sign of poor binding, and no number exists. Entries are sorted by rising average, undetected variants last. The authors' rule: three or more of the six replicates give a measured affinity, fewer mean a poor binder. Background: pairings of all light chain designs with three empty control strains gave a value in 4% of cases (median 430 nM, 5th percentile 38 nM). Values in that range, when seen in few replicates, are hard to tell from nonspecific mating. Values of this round are not directly comparable with the first-round values of the same sequences.

{"CDR-L1": "KLMALGDYESRNKNNVA", "CDR-L2": "QASQREQ", "CDR-L3": "QQYHRLPLS", "group": "GP_Gibbs", "Kd (apparent)": "300 pM", "replicates with signal": "6/6"}
{"CDR-L1": "KLSQSVLMESRNPNSVA", "CDR-L2": "NASTRES", "CDR-L3": "QQYHRLPLS", "group": "GP_Gen", "Kd (apparent)": "540 pM", "replicates with signal": "6/6"}
{"CDR-L1": "QIYQAMHTLMQATNNVA", "CDR-L2": "DVTNRNQ", "CDR-L3": "QQYHRLPLS", "group": "En_Gen", "Kd (apparent)": "930 pM", "replicates with signal": "6/6"}
{"CDR-L1": "KSSQSVLMESLNKNSVA", "CDR-L2": "GASTRES", "CDR-L3": "QQYNRLPLS", "group": "Ctrl", "Kd (apparent)": "1.1 nM", "replicates with signal": "6/6"}
{"CDR-L1": "MISDLTMYGSMNKNSVA", "CDR-L2": "DLSTRGS", "CDR-L3": "QQYHRLPLS", "group": "En_HC", "Kd (apparent)": "1.5 nM", "replicates with signal": "6/6"}
{"CDR-L1": "KLSQSWLYESRNSNSVA", "CDR-L2": "NASTREV", "CDR-L3": "QQYHRLPLS", "group": "GP_Gen", "Kd (apparent)": "1.9 nM", "replicates with signal": "6/6"}
{"CDR-L1": "TLTQVQGMESHNSNSVA", "CDR-L2": "DLSTRGS", "CDR-L3": "QQYHRLPLS", "group": "En_HC", "Kd (apparent)": "2.9 nM", "replicates with signal": "6/6"}
{"CDR-L1": "KISQMIRVGSTAVNSIA", "CDR-L2": "EEVTRAK", "CDR-L3": "QQYHRLPLA", "group": "En_Gen", "Kd (apparent)": "4.0 nM", "replicates with signal": "6/6"}
{"CDR-L1": "KLYQMMGYLSHNKNSIA", "CDR-L2": "DMSRREN", "CDR-L3": "QQYHRLPLS", "group": "En_HC", "Kd (apparent)": "4.2 nM", "replicates with signal": "6/6"}
{"CDR-L1": "KSSQSVLYESFNKNSVA", "CDR-L2": "AASTRES", "CDR-L3": "QQYHRLPLS", "group": "Ctrl", "Kd (apparent)": "8.3 nM", "replicates with signal": "6/6"}
{"CDR-L1": "KMSQSVWYESRNKNSVA", "CDR-L2": "WASTRES", "CDR-L3": "QQYHRLPLS", "group": "Ctrl", "Kd (apparent)": "11 nM", "replicates with signal": "1/6"}
{"CDR-L1": "KVSQSVMYEATNKNSVA", "CDR-L2": "WASTRES", "CDR-L3": "QQYHRLPLS", "group": "Ctrl", "Kd (apparent)": "11 nM", "replicates with signal": "6/6"}
{"CDR-L1": "KSSQSVLYESRNKNSVA", "CDR-L2": "AASTRES", "CDR-L3": "QQYHDLPLS", "group": "Ctrl", "Kd (apparent)": "68 nM", "replicates with signal": "5/6"}
{"CDR-L1": "KSSQSVLYEKINKNSVA", "CDR-L2": "HASTRES", "CDR-L3": "QQYHRLPLS", "group": "Ctrl", "Kd (apparent)": "76 nM", "replicates with signal": "5/6"}
{"CDR-L1": "HLSQMSGVESVKHNSVA", "CDR-L2": "ENSTREE", "CDR-L3": "QQYDRLPLT", "group": "En_Gen", "Kd (apparent)": "180 nM", "replicates with signal": "6/6"}
{"CDR-L1": "NLSGHQYNNSQKKNSIA", "CDR-L2": "EDNNIRL", "CDR-L3": "QQYHRLPFM", "group": "En_Gibbs", "Kd (apparent)": "700 nM", "replicates with signal": "2/6"}
{"CDR-L1": "KSSQSVLYDSRNKNSVA", "CDR-L2": "WAYTRES", "CDR-L3": "QQHHRLPLS", "group": "Ctrl", "Kd (apparent)": "1.4 µM", "replicates with signal": "1/6"}
{"CDR-L1": "KSSQSVLYESRNKNSVA", "CDR-L2": "WASTRES", "CDR-L3": "QQVHRLPLS", "group": "Ctrl", "Kd (apparent)": "1.6 µM", "replicates with signal": "3/6"}
{"CDR-L1": "KLGQLVGYEQRNKSRVA", "CDR-L2": "DNSTRES", "CDR-L3": "QQYDRLPLS", "group": "En_HC", "Kd (apparent)": "3.0 µM", "replicates with signal": "2/6"}
{"CDR-L1": "KSSQSVLTESRNKNSVA", "CDR-L2": "WAMTRES", "CDR-L3": "QQYHRYPLS", "group": "Ctrl", "Kd (apparent)": "not detected", "replicates with signal": "0/6"}
{"CDR-L1": "YMSGQIDEGWNQQEAIA", "CDR-L2": "QVTYKED", "CDR-L3": "QQYYKLPLS", "group": "En_Gibbs", "Kd (apparent)": "not detected", "replicates with signal": "0/6"}
{"CDR-L1": "IVSQLMLWGMHAKNSIA", "CDR-L2": "EGQTRLN", "CDR-L3": "QQYDRLPLF", "group": "En_Gen", "Kd (apparent)": "not detected", "replicates with signal": "0/6"}
{"CDR-L1": "KSSQSVLYESRNKGSVA", "CDR-L2": "WASTRES", "CDR-L3": "QQYHRLPLS", "group": "Ctrl", "Kd (apparent)": "not detected", "replicates with signal": "0/6"}
{"CDR-L1": "KSSQPVLYESRNKQSVA", "CDR-L2": "WALTRES", "CDR-L3": "QQYHRLPLG", "group": "Ctrl", "Kd (apparent)": "not detected", "replicates with signal": "0/6"}

The 2 strongest on average among those seen in every replicate, once more:

CDR-L1	CDR-L2	CDR-L3	group	Kd (apparent)	replicates with signal
KLMALGDYESRNKNNVA	QASQREQ	QQYHRLPLS	GP_Gibbs	300 pM	6/6
KLSQSVLMESRNPNSVA	NASTRES	QQYHRLPLS	GP_Gen	540 pM	6/6

From the AlphaSeq antibody data of Li et al. 2023 (doi:10.1038/s41467-023-39022-2), copy in the FLAb collection.